Apparent affinities of Ab-14 variants for a coronavirus HR2 peptide

The measurements come from Engelhart et al. 2022 (doi:10.1038/s41597-022-01779-4) through the FLAb antibody collection.

All variants were tested on one target, the spike HR2 peptide PDVDLGDISGINAS (SARS-CoV-2).

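The parent was found by panning a naive human phage display library on the peptide. AAYL50 was designed without a model: most single CDR substitutions and a random sample of double and triple ones. In AlphaSeq, yeast of one mating type display the scFv and yeast of the other type display the target. After mating in shaken culture at 30 °C for 16 h, diploids were selected and their barcode pairs sequenced. A regression on co-assayed BCL2-family reference pairs converts the normalised counts of each replicate to an apparent Kd. Mating was done three times.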

The variants keep the heavy chain, the linker and the frameworks of Ab-14 (scFv order VH, a 15-residue (Gly4Ser)3 linker, VL).
VH: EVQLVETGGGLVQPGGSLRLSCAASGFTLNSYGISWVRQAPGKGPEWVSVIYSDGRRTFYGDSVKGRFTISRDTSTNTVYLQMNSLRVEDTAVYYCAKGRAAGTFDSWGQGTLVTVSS
VL: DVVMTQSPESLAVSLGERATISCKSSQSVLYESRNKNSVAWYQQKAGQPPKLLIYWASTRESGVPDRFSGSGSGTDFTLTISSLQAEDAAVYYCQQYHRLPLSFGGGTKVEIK

Substitutions are numbered in sequence along the VL above, starting at 1 (not Kabat). Affinities are written as log10 Kd with Kd in nM; a lower number is a better binder. A mean of the replicates is given; it leaves out those without a signal. "no signal" marks a missing value. The strain was present, yet no cells mated with the target were sequenced in any replicate, which points to weak or no binding. Parent in this assay: reference entry 0.65, copy in this library 1.68.

changes,"mean, log10 nM",replicates with signal
Y31T/N37S/S62A,1.04,3 of 3
S26W/S28M/A40T,no signal,0 of 3
Q27Y/H98P/P101K,no signal,0 of 3
N35P/Q95S,3.80,1 of 3
L30T/N35W/Q96K,0.98,3 of 3
S25Q/N37Y,0.58,3 of 3
T59L/Q95Y/Q96G,1.08,3 of 3
E32P/H98E/S103I,2.02,3 of 3
N37P/W56L/E61S,2.48,3 of 3
S26G/V29I/V39Q,no signal,0 of 3
S25N/S28L/S33E,2.48,1 of 3
W56M/L100Q,3.01,2 of 3
V39E/A40G/E61D,4.64,1 of 3
S38C/Y97M/P101I,no signal,0 of 3
S26G/N35P/W56Y,4.64,3 of 3
L30E/K36D/A40R,4.62,2 of 3
S25P/V29E/W56L,1.08,3 of 3
R60L/Q95K/H98P,1.64,3 of 3
N37C/V39N/Q96H,2.48,1 of 3
E61S/P101L,no signal,0 of 3
S33H/N37D/E61F,2.39,3 of 3
Q27K/E32S/A57M,2.41,2 of 3
S58F/R60D/S103H,no signal,0 of 3
V29Y/N35W,1.78,3 of 3
Q27R/N37R/E61P,3.44,2 of 3
S26V/V29N/N35L,1.17,3 of 3
S28K/Q95L,1.37,3 of 3
L30E/S58D/R60W,3.78,1 of 3
R60G/L100G/S103F,no signal,0 of 3

The remaining entries, values ahead:

"mean, log10 nM",replicates with signal,changes
4.10,1 of 3,A40C/T59K/P101Q
0.77,3 of 3,R34F/H98Y
no signal,0 of 3,K24S/S28Q/S38I
0.82,3 of 3,S33Y/L100S
3.22,1 of 3,S38M/V39T/L100N
2.51,3 of 3,K24W/S38P/S103L
3.39,1 of 3,R34L/A40Q/H98G
0.86,3 of 3,K36V/T59R/H98N
3.38,2 of 3,S28H/S38G/T59L
2.02,3 of 3,N35F/K36L/H98I
0.77,3 of 3,W56Y/R60L/H98S
3.89,3 of 3,S25G/A40D/A57H
no signal,0 of 3,R34F/N35V/S58P
1.16,3 of 3,N35Q/K36I/A57T
4.94,2 of 3,K24V/W56I/L102C
2.43,1 of 3,S28Q/S38A
3.90,1 of 3,N35V/R99M/L102V
no signal,0 of 3,S26E/A40H/R60H
no signal,0 of 3,Q27I/V39T/R60D
no signal,0 of 3,S26P/A40W/S58P
2.00,1 of 3,S26M/R34K/W56F
4.05,1 of 3,K24V/L30T/L100H
4.12,1 of 3,Q27N/Q96K/L102A
no signal,0 of 3,S38V/V39Y/Q95A
no signal,0 of 3,R60T/R99S/S103M
1.97,3 of 3,S28V/A40H/W56N
1.38,3 of 3,S33G/W56M/S103F
4.76,1 of 3,A40R/Q96S
4.38,3 of 3,L30W/S58A/Q96K
2.54,3 of 3,K24H/K36H/S103Q

Repeated from above, the 7 best binders with a signal in all replicates:

changes,"mean, log10 nM",replicates with signal
S25Q/N37Y,0.58,3 of 3
W56Y/R60L/H98S,0.77,3 of 3
R34F/H98Y,0.77,3 of 3
S33Y/L100S,0.82,3 of 3
K36V/T59R/H98N,0.86,3 of 3
L30T/N35W/Q96K,0.98,3 of 3
Y31T/N37S/S62A,1.04,3 of 3

Three control strains display no target. For library AAYL50, 18% of the pairings with them gave a signal, with a median of 4.19 and one signal in twenty below 2.99, so weak values seen in few replicates may be background.